Experimental data reported in patent US8987248B2, “Substituted piperidines as Par-1 antagonists” (Bayer Intellectual Property GmbH, priority 2009, dated 2015).

Amino acid sequences for entries named in this document (tags omitted). Residues count along the entry.
UniProt P25116, 22-425: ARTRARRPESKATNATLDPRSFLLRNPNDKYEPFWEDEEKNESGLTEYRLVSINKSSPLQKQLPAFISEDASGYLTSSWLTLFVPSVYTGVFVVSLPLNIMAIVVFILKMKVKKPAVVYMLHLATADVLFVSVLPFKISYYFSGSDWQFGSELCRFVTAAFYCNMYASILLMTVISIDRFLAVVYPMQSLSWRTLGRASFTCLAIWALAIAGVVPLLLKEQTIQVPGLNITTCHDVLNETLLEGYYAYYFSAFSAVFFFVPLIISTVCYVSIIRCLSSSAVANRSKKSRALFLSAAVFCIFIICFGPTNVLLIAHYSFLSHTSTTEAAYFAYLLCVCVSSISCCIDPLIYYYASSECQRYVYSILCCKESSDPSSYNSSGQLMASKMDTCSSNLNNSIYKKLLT

Target: human protease activated receptor 1 (PAR-1) (Homo sapiens (Human), UniProt P25116)
Assay: Cellular, functional in vitro test (aequorin luminescence, calcium release in recombinant HEK293 PAR-1 test cell)
Type: cell-based
Conditions: HEK293-derived PAR-1 test cell line expressing aequorin; PAR-1 agonist added at its EC50, 5 min after test substance
Source text: 1.a) Cellular, Functional In Vitro Test
A recombinant cell line is used to identify […] of the human protease activated receptor 1 (PAR-1) and to quantify the activity of the substances described herein. The cell is originally derived from a human embryonal kidney cell (HEK293; ATCC: American Type Culture Collection, Manassas, Va. 20108, USA). The test cell line constitutively expresses a modified form of the calcium-sensitive photoprotein aequorin which, after reconstitution with the cofactor coelenterazine, emits light when the free calcium concentration in the inner mitochondrial compartment is increased (Rizzuto R, Simpson A W, Brini M, Pozzan T.; Nature 1992, 358, 325-327). Additionally, the cell stably expresses the endogenous human PAR-1 receptor and the endogenous purinergic receptor P2Y2. The resulting PAR-1 test cell responds to stimulation of the endogenous PAR-1 or P2Y2 receptor with an intracellular release of calcium ions, which can be quantified through resulting aequorin luminescence with a suitable luminometer (Milligan G, Marshall F, Rees S, Trends in Pharmacological Sciences 1996, 17, 235-237).
For the testing of the substance specificity, the effect thereof after activation of the endogenous PAR-1 receptor is compared with the effect after activation of the endogenous purinergic P2Y2 receptor which utilizes the same intracellular signal path.
Two days (48 hours) before the assay, the cells are plated out in culture medium (DMEM F12, supplemented with 10% FCS, 2 mM glutamine, 10 mM HEPES, 1.4 mM pyruvate, 0.1 mg/ml gentamycin, 0.15% Na bicarbonate; BioWhittaker Cat. #BE04-687Q; B-4800 Verviers, Belgium) in 384-well microtitre plates and kept in a cell incubator (96% humidity, 5% v/v CO2, 37° C.). On the day of the test, the culture medium is replaced by a tyrode solution (in mM: 140 sodium chloride, 5 potassium chloride, 1 magnesium chloride, 2 calcium chloride, 20 glucose, 20 HEPES), which additionally contains the cofactor coelenterazine (25 μM) and glutathione (4 mM), and the microtitre plate is then incubated for a further 3-4 hours. The test substances are then pipetted onto the microtitre plate, and 5 minutes after the transfer of the test substances into the wells of the microtitre plate the plate is transferred into the luminometer, a PAR-1 agonist concentration which corresponds to the EC50 is added and the resulting light signal is immediately measured in the luminometer. To distinguish an antagonist substance action from a toxic action, the endogenous purinergic receptor is immediately subsequently activated with agonist (ATP, final concentration 10 μM) and the resulting light signal is measured.

| IC50 [nM] | SMILES |
| --- | --- |
| 109 | CCc1ccc(C2CC(NC(=O)NC(C)(C)C)CN(C(=O)C3CCCC3)C2)cc1 (racemic) [Example 97, 1-tert-Butyl-3-[1-(cyclopentylcarbonyl)-5-(4-ethylphenyl)piperidin-3-yl]urea] |
| 7.05 | N#CC1CCN(C(=O)N2CC(NC(=O)c3ccccc3)CC(c3ccc(OC(F)(F)F)cc3)C2)CC1 (racemic) [Example 106, N-{1-[(4-Cyanopiperidin-1-yl)carbonyl]-5-[4-(trifluoromethoxy)phenyl]piperidin-3-yl}benzenecarboxamide] |
| 79.9 | CC(C)c1cccc(C2CC(NC(=O)c3ccccc3)CN(C(=O)N3CCOCC3)C2)c1 (racemic) [Example 121, N-{1-(Morpholin-4-ylcarbonyl)-5-[3-(propan-2-yl)phenyl]piperidin-3-yl}benzenecarboxamide] |
| 11.1 | CCc1ccc(C2CC(NC(=O)c3cccc(OC)c3)CN(C(=O)N3CCC(C#N)CC3)C2)cc1 (racemic) [Example 156, N-{1-[(4-Cyanopiperidin-1-yl)carbonyl]-5-(4-ethylphenyl)piperidin-3-yl}-3-methoxybenzenecarboxamide] |
